Measurements taken from patent US12202815B2 (dated 2025).
Where two headings read alike, the source gives them in different places.

Assays:
full length AR = assay: LNCaP or AD1 degradation (AR FL), Western blot; assay type: cell-based; settings: Table 3
AR = biological target: T1, AR (Rattus norvegicus, UniProt P15207); settings: 20 mg/kg
T1 sequence (P15207 1-902): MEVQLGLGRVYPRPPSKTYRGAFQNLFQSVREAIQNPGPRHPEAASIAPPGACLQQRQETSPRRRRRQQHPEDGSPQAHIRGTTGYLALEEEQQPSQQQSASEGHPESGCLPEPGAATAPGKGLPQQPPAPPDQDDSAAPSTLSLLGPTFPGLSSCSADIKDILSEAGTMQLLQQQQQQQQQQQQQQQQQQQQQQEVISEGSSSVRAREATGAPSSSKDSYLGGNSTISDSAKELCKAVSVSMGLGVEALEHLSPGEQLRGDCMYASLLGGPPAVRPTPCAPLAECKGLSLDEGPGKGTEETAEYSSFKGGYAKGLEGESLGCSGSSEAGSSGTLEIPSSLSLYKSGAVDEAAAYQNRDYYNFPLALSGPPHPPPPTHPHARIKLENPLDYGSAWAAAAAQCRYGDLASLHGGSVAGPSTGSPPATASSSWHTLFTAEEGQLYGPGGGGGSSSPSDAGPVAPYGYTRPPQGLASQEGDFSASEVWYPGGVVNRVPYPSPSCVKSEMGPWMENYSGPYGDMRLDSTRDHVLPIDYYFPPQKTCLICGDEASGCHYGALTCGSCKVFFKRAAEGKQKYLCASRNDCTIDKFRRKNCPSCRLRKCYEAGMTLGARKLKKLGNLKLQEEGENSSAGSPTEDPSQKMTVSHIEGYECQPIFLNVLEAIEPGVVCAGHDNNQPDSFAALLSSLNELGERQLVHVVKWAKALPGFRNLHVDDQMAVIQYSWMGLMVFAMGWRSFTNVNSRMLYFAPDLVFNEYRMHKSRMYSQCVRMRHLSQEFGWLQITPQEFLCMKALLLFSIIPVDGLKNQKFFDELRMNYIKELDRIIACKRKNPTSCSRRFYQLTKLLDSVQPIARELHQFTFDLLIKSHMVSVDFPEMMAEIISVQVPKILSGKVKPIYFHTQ

C[C@](O)(Cn1cc(-c2ccc(F)cc2)nn1)C(=O)Nc1ccc(C#N)c(C(F)(F)F)c1 [Compound 1045]
Degradation (% at 3 μM) (full length AR): 47% | Serum Conc. (Table 3, 20 mg/kg Hershberger): 1209 nM

C[C@](O)(Cn1ccc2cc(F)ccc21)C(=O)Nc1ccc(C#N)c(C(F)(F)F)c1 [Compound 11]
(Prostate) % diff (AR; prostate weight vs intact vehicle treated rats): −19% | (S.V.) % diff (AR; seminal vesicles weight vs intact vehicle treated rats): −12%

C[C@](O)(Cn1cc(Cl)cn1)C(=O)Nc1ccc(C#N)c(C(F)(F)F)c1 [Compound 1049]
Serum Conc. (Table 3, 20 mg/kg Hershberger): 125 nM

C[C@](O)(Cn1cc(F)cn1)C(=O)Nc1ccc(C#N)c(C(F)(F)F)c1
Serum Conc. (Table 2, rats 20 mg/kg, 24-30 hours after last dose): 33 nM
